# Literature values in patent US20110060267A1 (priority 2008, published 2011).
# Conditions: benzene; cited from earlier work
row,Molecule,10th Half-life ° C. (Solvent)
1,CC(=O)OOC(C)(C)C,100 (benzene) ° C.
2,CCC(C)(OOC(C)(C)C)OOC(C)(C)C,100 (benzene) ° C.
3,Bis[1-(tert-butylperoxy)-1-methylethyl]benzene,115 (benzene) ° C.
